Literature values, collected in paper PMC4276913.

By UniProt entry, the sequences of proteins in these tests, tags left out. Residues count along the entry.
UniProt Q15819, 2-145, chain 1 of 2: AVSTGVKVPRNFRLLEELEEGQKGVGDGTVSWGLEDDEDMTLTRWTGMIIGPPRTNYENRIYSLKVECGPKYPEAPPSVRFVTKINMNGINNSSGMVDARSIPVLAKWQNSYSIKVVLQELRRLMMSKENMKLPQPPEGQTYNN

What was measured:
[1] = target: Mms2-Ubc13 (Homo sapiens) (UniProt Q15819)
Mms2 (Homo sapiens) = Mms2 (Homo sapiens) (UniProt Q15819)

## ubiquitin (from UniProt P0CG48)
[1]
  Kd: 28 µM
Mms2 (Homo sapiens)
  Kd: 98 µM
